Earlier results, collected in patent US6113907A, “Pharmaceutical grade St. John's Wort” (priority 1997, dated 2000).

System: serotonin uptake
Details: cited from earlier work

CN(C)CCCN1c2ccccc2CCc2ccc(Cl)cc21 [Clomipramine, clomipramine]
serotonin uptake inhibition IC50 (equivalent of 0.9 nM): ~ 0.3 ng/ml
IC50 (read-out: serotonin uptake inhibition IC50): 0.9 nM
